# Target: α-Glucosidase from recombinant yeast (Saccharomyces cerevisiae, UniProt P53341)
# Amino acid sequences for entries named in this document (tags omitted).
# UniProt P53341, whole entry: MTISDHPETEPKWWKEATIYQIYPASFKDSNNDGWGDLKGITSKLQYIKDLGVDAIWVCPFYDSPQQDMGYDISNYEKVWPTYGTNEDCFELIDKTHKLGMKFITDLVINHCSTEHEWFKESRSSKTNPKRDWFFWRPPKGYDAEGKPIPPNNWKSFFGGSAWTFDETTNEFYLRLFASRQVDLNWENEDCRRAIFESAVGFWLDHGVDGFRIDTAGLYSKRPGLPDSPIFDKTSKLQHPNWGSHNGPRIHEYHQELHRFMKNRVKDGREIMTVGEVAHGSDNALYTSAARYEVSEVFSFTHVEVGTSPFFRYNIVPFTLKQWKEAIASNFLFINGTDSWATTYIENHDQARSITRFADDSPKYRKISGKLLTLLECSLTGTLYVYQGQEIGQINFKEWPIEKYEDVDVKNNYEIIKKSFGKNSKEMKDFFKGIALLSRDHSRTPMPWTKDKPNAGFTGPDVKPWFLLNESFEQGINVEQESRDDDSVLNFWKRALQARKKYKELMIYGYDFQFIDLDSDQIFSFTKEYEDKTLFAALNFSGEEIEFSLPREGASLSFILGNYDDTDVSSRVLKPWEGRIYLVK
compound,measurement,setting,value
CC/C=C\C/C=C\C/C=C\C/C=C\C/C=C\CCCC(=O)O,IC50,"0.1 M phosphate buffer pH 6.9, 0.5% DMSO, 37 °C, α-PNPG, mean ± SD (n = 3)",480 nM
same,Inhibitory score,"Tables 2, 3, S2, S3, method defines score as 1/IC50, but values match the regression model of b37",6.70

# From paper PMC10992144, “Construction of fatty acid derivatives from rubber seed oil as α-glucosidase inhibitors based on rubber seed oil” (Bioresources and Bioprocessing, 2022)
